Publication doi:10.1101/434357v1 (biorxiv, 2018)

Molecular target: T1, α2-WT GlyR (Homo sapiens, UniProt P23416)
T1 construct: gene GLRA2; full-length homomeric pentamer; pGEMHE in Xenopus laevis oocytes, pCIS2 in HEK293 cells
T1 sequence (P23416 28-452): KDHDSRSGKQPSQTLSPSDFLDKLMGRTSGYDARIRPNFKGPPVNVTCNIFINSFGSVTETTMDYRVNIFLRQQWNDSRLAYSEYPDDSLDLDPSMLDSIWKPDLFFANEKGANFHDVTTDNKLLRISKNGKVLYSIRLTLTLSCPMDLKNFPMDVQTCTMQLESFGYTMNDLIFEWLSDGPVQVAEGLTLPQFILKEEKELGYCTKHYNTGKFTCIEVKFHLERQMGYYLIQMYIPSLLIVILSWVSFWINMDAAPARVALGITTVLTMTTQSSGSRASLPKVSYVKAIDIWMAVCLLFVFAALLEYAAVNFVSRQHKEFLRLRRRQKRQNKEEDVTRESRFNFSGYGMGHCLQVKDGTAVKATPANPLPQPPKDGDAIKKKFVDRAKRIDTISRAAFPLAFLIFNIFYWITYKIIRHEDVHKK
Assay: two-electrode voltage clamp, Xenopus oocytes, current dose-response
Assay type: cell-based

EC50: 230 µM
SMILES: NCC(=O)O [Glycine]
